Measurements from patent publication US6579900B2, “Anandamide amidase inhibitors as analgesic agents” (priority 1996, dated 2003).

Sequences of proteins named here, by UniProt entry; tags and fusion partners are left off.
UniProt P20272, whole entry: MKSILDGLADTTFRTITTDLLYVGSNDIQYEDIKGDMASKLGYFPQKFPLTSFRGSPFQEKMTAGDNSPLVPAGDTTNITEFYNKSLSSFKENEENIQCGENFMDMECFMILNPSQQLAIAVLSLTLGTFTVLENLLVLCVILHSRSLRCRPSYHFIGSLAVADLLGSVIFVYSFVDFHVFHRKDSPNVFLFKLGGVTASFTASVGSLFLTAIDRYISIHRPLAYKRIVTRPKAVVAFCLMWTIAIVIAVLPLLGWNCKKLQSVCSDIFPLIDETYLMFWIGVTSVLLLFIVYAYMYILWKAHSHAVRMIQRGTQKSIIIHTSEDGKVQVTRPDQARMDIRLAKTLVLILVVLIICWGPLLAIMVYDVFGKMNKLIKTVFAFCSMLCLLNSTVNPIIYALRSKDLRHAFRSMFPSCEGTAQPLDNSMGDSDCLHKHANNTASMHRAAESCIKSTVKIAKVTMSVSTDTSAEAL
UniProt O08914, whole entry: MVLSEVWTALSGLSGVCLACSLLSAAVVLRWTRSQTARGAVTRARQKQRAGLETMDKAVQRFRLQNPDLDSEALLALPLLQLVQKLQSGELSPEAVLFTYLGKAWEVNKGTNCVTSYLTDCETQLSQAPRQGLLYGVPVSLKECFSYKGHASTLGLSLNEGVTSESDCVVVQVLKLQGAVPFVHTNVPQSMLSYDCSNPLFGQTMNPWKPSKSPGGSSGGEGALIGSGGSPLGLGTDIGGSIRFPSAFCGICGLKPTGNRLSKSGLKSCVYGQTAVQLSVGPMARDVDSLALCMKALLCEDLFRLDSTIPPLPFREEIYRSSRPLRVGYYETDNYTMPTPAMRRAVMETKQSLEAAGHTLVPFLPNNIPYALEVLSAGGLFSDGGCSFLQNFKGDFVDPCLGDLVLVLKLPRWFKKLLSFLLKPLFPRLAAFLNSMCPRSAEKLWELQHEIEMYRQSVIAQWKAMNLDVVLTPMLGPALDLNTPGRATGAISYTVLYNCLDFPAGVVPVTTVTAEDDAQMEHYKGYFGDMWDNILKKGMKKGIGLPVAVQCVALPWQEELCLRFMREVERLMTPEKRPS

Assays:
[1] = molecular target: T1, CB1 receptor (Rattus norvegicus, UniProt P20272); assay: biochemical; format: binding
T1 construct: brain membranes were prepared from frozen rat brains; from tissue; host or cells: membranes from frozen rat brains

[2] = system: male MF1 mice; assay: Tail flick test of analgesia ("rat flick test"); conditions: intravenous, tail flick at 12 minutes, percent maximum possible effect
[3] = molecular target: T2, anandamide amidase (Mus musculus, UniProt O08914); assay: Anandamide amidase assay in intact neuroblastoma cells ([3H]anandamide levels); format: cell-based
T2 construct: The assay of the anandamide amidase in intact neuroblastoma cells; endogenous in cells; host or cells: N18TG2 neuroblastoma cells

Compound | Ki [1] [nM] | effectiveness at producing analgesia relative to anandamide alone [2] | effectiveness at producing analgesia relative to the vehicle [2] | potency at inhibiting anandamide amidase relative to phenylmethylsulfonyl fluoride ([3]; intact neuroblastoma cells) | radioactivity found in anandamide rather than in cleavage products ([3]; nanomolar amounts of inhibitor, N18TG2 cells)
CCCCC/C=C\C/C=C\C/C=C\C/C=C\CCCC(=O)NCCO [arachidonoyl ethanolamide, reference compound] | 70 |  |  |  | 
CCCCCCCCCCCCCCCCS(=O)(=O)F [palmitylsulfonyl fluoride] |  | about 3 × | about 13 × | more than 100 fold | over 50%
